Patent US20110318808
Numbering of substitutions follows the chain as printed. Names may count otherwise.

B1: NIa protease variant C151S (protein)
chain: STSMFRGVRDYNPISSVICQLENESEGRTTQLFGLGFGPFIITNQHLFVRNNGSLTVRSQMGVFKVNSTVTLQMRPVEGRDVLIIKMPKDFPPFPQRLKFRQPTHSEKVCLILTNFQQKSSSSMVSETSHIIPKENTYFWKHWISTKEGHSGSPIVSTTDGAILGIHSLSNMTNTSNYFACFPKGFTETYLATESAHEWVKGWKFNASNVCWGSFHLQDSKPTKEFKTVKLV
B2: NIa protease variant C110S/C181S/C211S (protein)
chain: B1 chain with C110S, S151C, C181S, C211S
B3: NIa protease variant C110S/C151S/C181S/C211S (protein)
chain: B1 chain with C110S, C181S, C211S
B4: NIa protease variant C19V/C110S/C181S/C211S (protein)
chain: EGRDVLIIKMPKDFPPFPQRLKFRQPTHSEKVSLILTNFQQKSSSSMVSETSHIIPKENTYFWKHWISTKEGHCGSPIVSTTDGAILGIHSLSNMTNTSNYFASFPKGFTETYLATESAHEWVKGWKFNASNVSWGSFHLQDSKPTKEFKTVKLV
B5: NIa protease variant C19V/C110S/C151S/C181S/C211S (protein)
chain: B4 chain with C74S

Target: T1, fluorophore/quencher substrate peptide DABCYL-YGENVTFQGSK-EDANS
T1 chain: YGENVTFQGSK
Protein B1 has a Km (uM), DTT + of 165 µM, a Relative Kcat/Km, DTT + of 4.3 and a Vmax (RFU/min), DTT + of 3240 RFU/min.
In the case of B2, the Km (uM), DTT + is reported as 252 µM, the Relative Kcat/Km, DTT + is reported as 45.9 and the Vmax (RFU/min), DTT + is reported as 51100 RFU/min.
With B3 the Km (uM), DTT + was 71.8 µM, the Relative Kcat/Km, DTT + was 7.6 and the Vmax (RFU/min), DTT + was 2350 RFU/min.
In the case of B4, the Km (uM), DTT + is reported as 275 µM, the Km (uM), DTT - (purified and assayed in the absence of reductant) is reported as 175 µM and the Relative Kcat/Km, DTT + is reported as 59.5. The Relative Kcat/Km, DTT - (purified and assayed in the absence of reductant) was 69.1, the Vmax (RFU/min), DTT + was 75200 RFU/min and the Vmax (RFU/min), DTT - (purified and assayed in the absence of reductant) was 53800 RFU/min.
Protein B5 has a Km (uM), DTT + of 39.6 µM, a Km (uM), DTT - (purified and assayed in the absence of reductant) of 43.1 µM and a Relative Kcat/Km, DTT + of 10.8. For the same protein, the Relative Kcat/Km, DTT - (purified and assayed in the absence of reductant) was 7.1, the Vmax (RFU/min), DTT + was 1890 RFU/min and the Vmax (RFU/min), DTT - (purified and assayed in the absence of reductant) was 1360 RFU/min.
